Source: ChEMBL document CHEMBL6115048, “Uncovering α-Selectivity for Liver X Receptor Agonists for Lipotoxic Cancer Therapies” (J Med Chem, 2025)

Test: Selectivity ratio of EC50 for agonist activity at LXRbeta (unknown origin) transfected in NR1H3 knockout human Hep3B cells co-transfected with LXRE-GFP to EC50 for agonist activity at LXRalpha (unknown origin) transfected in NR1H2 knockout human Hep3B cells co-transfected with LXRE-GFP measured after 48 hrs

Ratio EC50: 23
Compound: O=C1C(Nc2ccc(N3CCCCC3)cc2)=C(c2ccccc2)C(=O)N1Cc1ccccc1
